According to patent publication US5047534A (Merrell Dow Pharmaceuticals Inc., priority 1990, dated 1991):
Where two headings read alike, the source gives them in different places.

The chains behind the UniProt entries cited, without tags or fusion partners.
UniProt P25099, whole entry: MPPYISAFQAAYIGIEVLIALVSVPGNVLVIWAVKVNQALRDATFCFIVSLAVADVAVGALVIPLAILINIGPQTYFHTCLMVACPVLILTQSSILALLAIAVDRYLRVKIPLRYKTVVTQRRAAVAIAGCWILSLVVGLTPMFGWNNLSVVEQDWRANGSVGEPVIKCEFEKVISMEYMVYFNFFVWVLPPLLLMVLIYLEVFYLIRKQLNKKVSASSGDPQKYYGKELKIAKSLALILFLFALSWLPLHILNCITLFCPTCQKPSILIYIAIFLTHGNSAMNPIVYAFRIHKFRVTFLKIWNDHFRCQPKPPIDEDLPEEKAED

Experiments:
[1] = target: T1, Adenosine A-1 receptor (Rattus norvegicus, UniProt P25099); assay: biochemical
[2] = target: T1, Adenosine A-1 receptor

SMILES | Ki [1] [nM] | Ki [2] [nM]
CCCn1c(=O)c2[nH]c(C3Cc4ccccc4C3)nc2n(CCC)c1=O [3,7-dihydro-8-(2-indanyl)-1,3-dipropyl-1H-purine-2,6-dione] | 61.8 | 
CCCn1c(=O)c2[nH]c([C@H](C)Cc3ccccc3)nc2n(CCC)c1=O [3,7-dihydro-8-[(1R)-1-methyl-2-phenylethyl]-1,3-dipropyl-1H-purine-2,6-dione] |  | 6.9
CCCn1c(=O)c2[nH]c([C@@H](C)Cc3ccccc3)nc2n(CCC)c1=O [3,7-dihydro-8-[(1S)-1-methyl-2-phenylethyl]-1,3-dipropyl-1H-purine-2,6-dione] |  | 60.7
